From patent publication US9968603B2, “Systems for sustained intraocular delivery of low solubility compounds from a port delivery system implant” (ForSight Vision4, Inc., priority 2013, dated 2018)

What was measured:
[1] = Formulations with amphiphilic agents and non-aqueous solvents (no complexing agent), concentration dissolved; type: physicochemical
[2] = Formulation (solubility) screening with cyclodextrins, concentrations achieved; details: for Expected Concentration Achieved: achieved vs expected formulation concentration
physchem = details: pH-adjusted aqueous solution without complexing agent, pH 2, aqueous buffer

SMILES: CNC(=O)c1ccccc1Sc1ccc2c(/C=C/c3ccccn3)n[nH]c2c1 [Axitinib, N-Methyl-2-((3-((1E)-2-(pyridin-2-yl)ethenyl)-1H-indazol-6-yl)sulfanyl)benzamide]
- clear solution concentration ([1]; 30% SOLUTOL HS 15 and 70% PBS): ≤ 6 mg/mL
- solution concentration ([1]; 32% Pyrrolidone, 31% PEG 300, 5% Polysorbate 80, 31% water): ≤ 20 mg/mL
- solution concentration prepared ([1]; neat DMSO): 5 mg/mL
- solution concentration prepared ([1]; neat N,N-Dimethyl acetamide): 60 mg/mL
- concentration formulated ([1]; neat PEG 300): 9000 µg/mL
- solution concentration prepared ([1]; neat Pyrrolidone): 40 mg/mL
- Expected Concentration Achieved [2]: met the desired concentration levels and Yes

SMILES: CCN(CC)CCNC(=O)c1c(C)[nH]c(/C=C2\C(=O)Nc3ccc(F)cc32)c1C.O=C(O)CC(O)C(=O)O [Sunitinib, Butanedioic acid, hydroxy-, (2S)-, compound with N-[2-(diethylamino)ethyl]-5-[(Z)-(5-fluoro-1,2-dihydro-2-oxo-3H-indol-3-ylidine)methyl]-2,4-dimethyl-1H-pyrrole-3-carboxamide (1:1)]
- solubility (physchem): 40 mg/mL
- Expected Concentration Achieved [2]: met the desired concentration levels and Yes
- Concentrations achieved at pH 7, for FB ([2]; free base): (50 mg/mL
